# Measurements as given in patent US11254667B2 (priority 2016, dated 2022).
# Experiments:
# [1] = system: MA9-FLT3-ITD cells; experiment: cells; assay type: cell-based
# [2] = system: MA9-FLT3-ITD cells; experiment: AnnexinV viability and recovery of MA9-FLT3-ITD cells; assay type: cell-based, human; settings: 72 hours treatment, washed, replated with cytokines
# [3] = Homo sapiens; average of three runs against MLL-AF9/FLT3-ITD cells, Cell Titer Glo; read-out: IC50
# [4] = Homo sapiens; read-out: FLT3 ITD IC50
# [5] = Homo sapiens, MLL-AF9, average of three runs against MLL-AF9/FLT3-ITD cells, Cell Titer Glo
# [6] = Homo sapiens, read-out: FLT3 ITD IC50
Structure (SMILES),"IC50 [1, 3] [nM]","IC50 [1, 4] [nM]","IC50 [1, 5] [nM]","IC50 [1, 6] [nM]",also measured
"c1cc(NC2CNC2)nc(-c2cnc3ccccn23)c1 [Compound I-12, N-(azetidin-3-yl)-6-(imidazo[1,2-a]pyridin-3-yl)pyridin-2-amine]",260,260,,,
"Clc1ccc2ncc(-c3cccc(NC4CNC4)n3)n2c1 [Compound I-15, N-(azetidin-3-yl)-6-(6-chloroimidazo[1,2-a]pyridin-3-yl)pyridin-2-amine]",45,,,,
"Clc1ccc2ncc(-c3cccc(NC4CCNC4)n3)n2c1 (stereo not drawn) [Compound I-16, 6-(6-chloroimidazo[1,2-a]pyridin-3-yl)-N-(pyrrolidin-3-yl)pyridin-2-amine]",30,30,,,fold improvement of potency compared to compound I-15 ([1]; MA9-FLT3-ITD cells): ~2 fold
"COc1cc2ncc(-c3cccc(NC4CCNC4)n3)n2cc1-c1cn[nH]c1 (stereo not drawn) [Compound I-20, 6-(7-methoxy-6-(1H-pyrazol-4-yl)imidazo[1,2-a]pyridin-3-yl)-N-(pyrrolidin-3-yl)pyridin-2-amine]",,,5,40,recovery of cell viability after removal of compound [2]: remained apoptotic
"COc1cc2ncc(-c3cccc(NC4CCNC4)n3)n2cc1Cl (stereo not drawn) [Compound I-21, 6-(6-chloro-7-methoxyimidazo[1,2-a]pyridin-3-yl)-N-(pyrrolidin-3-yl)pyridin-2-amine]",6,,,,fold improvement of potency compared to compound I-15 ([1]; MA9-FLT3-ITD cells): ~8 fold
"COc1cc2ncc(-c3cccc(NC4CCNC4)n3)n2cc1-c1ccncc1 (stereo not drawn) [Compound I-23, 6-(7-methoxy-6-(pyridin-4-yl)imidazo[1,2-a]pyridin-3-yl)-N-(pyrrolidin-3-yl)pyridin-2-amine]",,,15,15,
"COc1cc2ncc(-c3cccc(NC4CCNC4)n3)n2cc1-c1c(C)n[nH]c1C (stereo not drawn) [Compound I-25, 6-(6-(3,5-dimethyl-1H-pyrazol-4-yl)-7-methoxyimidazo[1,2-a]pyridin-3-yl)-N-(pyrrolidin-3-yl)pyridin-2-amine]",,,380,380,
COc1cc2ncc(-c3cccc(NC4CCNC4)n3)n2cc1-c1cnn(CCN2CCOCC2)c1 (stereo not drawn) [Compound I-26],,,,20,
"COc1cc2ncc(-c3cccc(NC4CCNC4)n3)n2cc1-c1cc[nH]c1 (stereo not drawn) [Compound I-27, 6-(7-methoxy-6-(1H-pyrrol-3-yl)imidazo[1,2-a]pyridin-3-yl)-N-(pyrrolidin-3-yl)pyridin-2-amine]",,,30,30,
"COc1cc2ncc(-c3cccc(NC4CCNC4)n3)n2cc1-c1c(C)noc1C (stereo not drawn) [Compound I-28, 6-(6-(3,5-dimethylisoxazol-4-yl)-7-methoxyimidazo[1,2-a]pyridin-3-yl)-N-(pyrrolidin-3-yl)pyridin-2-amine]",,,140,140,
"COc1cc2ncc(-c3cccc(NC4CCCNC4)n3)n2cc1-c1cn[nH]c1 (stereo not drawn) [Compound I-29, 6-(7-methoxy-6-(1H-pyrazol-4-yl)imidazo[1,2-a]pyridin-3-yl)-N-(piperidin-3-yl)pyridin-2-amine]",,,15,15,fold decrease of potency compared to compound I-20 ([1]; MA9-FLT3-ITD cells): 3 fold
"COc1cc2ncc(-c3cccc(N(C)C4CCNC4)n3)n2cc1-c1cn[nH]c1 (stereo not drawn) [Compound I-31, 6-(7-methoxy-6-(1H-pyrazol-4-yl)imidazo[1,2-a]pyridin-3-yl)-N-methyl-N-(pyrrolidin-3-yl)pyridin-2-amine]",,,298,298,
"COc1cc2ncc(-c3cccc(OC4CCNC4)n3)n2cc1-c1cn[nH]c1 (stereo not drawn) [Compound I-32, 7-methoxy-6-(1H-pyrazol-4-yl)-3-(6-(pyrrolidin-3-yloxy)pyridin-2-yl)imidazo[1,2-a]pyri-dine]",,,166,166,
"COc1cc2ncc(-c3nc(NC4CCNC4)c(F)cc3F)n2cc1-c1cn[nH]c1 (stereo not drawn) [Compound I-33, 3,5-difluoro-6-(7-methoxy-6-(1H-pyrazol-4-yl)imidazo[1,2-a]pyridin-3-yl)-N-(pyrrolidin-3-yl)pyridin-2-amine]",,,53,53,fold decrease of potency compared to compound I-20 ([1]; MA9-FLT3-ITD cells): 10 fold
Clc1cn2c(-c3cccc(NC4CCNC4)n3)cnc2cc1OCCN1CCOCC1 (stereo not drawn) [Compound I-40],,,,8,
"c1cc(NC2CCNC2)nc(-c2cnc3cc(OCCN4CCOCC4)c(-c4cn[nH]c4)cn23)c1 (stereo not drawn) [Compound I-41, 6-(7-(2-morpholinoethoxy)-6-(1H-pyrazol-4-yl)imidazo[1,2-a]pyridin-3-yl)-N-(pyrrolidin-3-yl)pyridin-2-amine]",,,68,68,
"COc1cc(Cl)cn2c(-c3cccc(NC4CNC4)n3)cnc12 [Compound I-42, N-(azetidin-3-yl)-6-(6-chloro-8-methoxyimidazo[1,2-a]pyridin-3-yl)pyridin-2-amine]",,,953,953,
Fc1cc(F)c(-c2cnc3ccc(Cl)cn23)nc1NC1CNC1 [Compound I-47],,,,157,
"COc1ccn2c(-c3cccc(NC4CNC4)n3)cnc2c1 [Compound I-50, N-(azetidin-3-yl)-6-(7-methoxyimidazo[1,2-a]pyridin-3-yl)pyridin-2-amine]",120,120,,,
"c1cc(NC2CCNC2)nc(-c2cnc3ccc(-c4cn[nH]c4)cn23)c1 (stereo not drawn) [Compound I-54, 6-(6-(1H-pyrazol-4-yl)imidazo[1,2-a]pyridin-3-yl)-N-(pyrrolidin-3-yl)pyridin-2-amine]",34,,,,
"Cc1cc(NC2CNC2)nc(-c2cnc3ccc(Cl)cn23)c1 [Compound I-55, N-(azetidin-3-yl)-6-(6-chloroimidazo[1,2-a]pyridin-3-yl)-4-methylpyridin-2-amine]",291,291,,,
"Fc1cc(F)c(-c2cnc3ccc(Cl)cn23)nc1NC1CNC1 [Compound I-56, N-(azetidin-3-yl)-6-(6-chloroimidazo[1,2-a]pyridin-3-yl)-3,5-difluoropyridin-2-amine]",,,157,,IC50 ([1]; read-out: FLT3 ITD IC50): 95 nM
"N#Cc1ccc2ncc(-c3cccc(NC4CNC4)n3)n2c1 [Compound I-60, 3-(6-(azetidin-3-ylamino)pyridin-2-yl)imidazo[1,2-a]pyridine-6-carbonitrile]",313,313,,,
"Cc1ccn2c(-c3cccc(NC4CNC4)n3)cnc2c1 [Compound I-61, N-(azetidin-3-yl)-6-(7-methylimidazo[1,2-a]pyridin-3-yl)pyridin-2-amine]",442,442,,,
"Clc1ccn2c(-c3cccc(NC4CNC4)n3)cnc2c1 [Compound I-63, N-(azetidin-3-yl)-6-(7-chloroimidazo[1,2-a]pyridin-3-yl)pyridin-2-amine]",973,973,,,
CCN1CCN(c2ccc3ncc(-c4cccc(NC5CNC5)n4)n3c2)CC1 [Compound I-64],,2000,,,
"COc1cc(NC2CNC2)nc(-c2cnc3ccc(Cl)cn23)c1 [Compound I-67, N-(azetidin-3-yl)-6-(6-chloroimidazo[1,2-a]pyridin-3-yl)-4-methoxypyridin-2-amine]",892,892,,,
"C#Cc1cn2c(-c3cccc(NC4CCNC4)n3)cnc2cc1OC (stereo not drawn) [Compound I-68, 6-(6-ethynyl-7-methoxyimidazo[1,2-a]pyridin-3-yl)-N-(pyrrolidin-3-yl)pyridin-2-amine]",15,15,,,

# Read-outs that look alike come from different tables or passages of the source.
